# Data published in PubChem BioAssay AID1040 (The Scripps Research Institute Molecular Screening Center, 2008).
# Protein sequences, listed by entry. Tags and fused reporters are not part of them.
# UniProt P25929, whole entry: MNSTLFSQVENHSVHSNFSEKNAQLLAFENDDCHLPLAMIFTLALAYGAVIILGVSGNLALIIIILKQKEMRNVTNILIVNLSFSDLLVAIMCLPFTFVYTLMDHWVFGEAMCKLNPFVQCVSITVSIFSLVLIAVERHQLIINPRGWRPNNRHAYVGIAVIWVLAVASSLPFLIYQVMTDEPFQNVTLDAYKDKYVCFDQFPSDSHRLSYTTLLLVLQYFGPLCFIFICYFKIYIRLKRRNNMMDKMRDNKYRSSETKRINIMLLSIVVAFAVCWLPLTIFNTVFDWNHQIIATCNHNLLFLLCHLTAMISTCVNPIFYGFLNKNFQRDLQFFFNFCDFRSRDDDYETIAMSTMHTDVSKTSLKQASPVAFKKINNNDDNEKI
# This is a selection; strong and weak results do not stand in their true shares. Calls of active or inactive are those of the source.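 How the source made its calls: active means inhibition above the campaign mean inhibition of all tested compounds plus 3 SD (cut at about 20% in these data); inactive means the rest.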
# Target: Neuropeptide Y receptor type 1 (Homo sapiens) (UniProt P25929)
# Experiment: blockers of human neuropeptide Y Y1 receptor – cell-based, primary screen (AID 1040);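 further: 0% = DMSO wells given NPY plus isoproterenol and 100% = isoproterenol alone without NPY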
# Conditions: HEK293-CNG Y1 cells, membrane potential fluorescence; at 3.6 µM; hits give high values; NPY at EC95, then isoproterenol
row,SMILES,inhibition
1,CCN1CCC(Nc2cccc(F)c2)CC1,inactive: 2.36%
2,CN(C)c1ccc(C(=O)NCC2(N3CCCCC3)CCCCC2)cc1,inactive: 3.32%
3,CCOc1ncccc1C(=O)NCC1(N2CCOCC2)CCCCC1,inactive: -1.92%
4,CC(C)(C)OC(=O)N1CCC(Nc2ccccc2)CC1,inactive: -5.14%
5,CCC(CO)(C(=O)OC1CN2CCC1CC2)c1ccccc1 (stereo not given),inactive: -1.91%
6,COc1cc(OC)cc(C(=O)NCC2(N3CCOCC3)CCCCC2)c1,inactive: 2.61%
7,COc1ccc(C(=O)NCC2(N3CCOCC3)CCCCC2)cc1OC,inactive: 1.37%
8,N/C(=N\O)c1c(N)no[n+]1[O-],inactive: -1.62%
9,O=C(OC1CN2CCC1CC2)C1c2ccccc2C=Cc2ccccc21 (stereo not given),inactive: 8.08%
10,N#Cc1ccc(C(=O)NCC2(N3CCCCC3)CCCCC2)cc1,inactive: 3.24%
11,c1ccc(CN2CCC(Nc3ccccc3)CC2)cc1,inactive: 2.7%
12,O=C(NCC1(N2CCCCC2)CCCCC1)c1cccc([N+](=O)[O-])c1,inactive: 3.17%
13,N#CC1(Nc2ccccc2)CCN(CCc2ccccc2)CC1,inactive: 4.68%
14,CN1CCN(CCOC(=O)C(O)(c2ccccc2)c2ccccc2)CC1,inactive: -1.42%
15,COc1ccc(NC2CCN(C(=O)OC(C)(C)C)CC2)cc1,inactive: -5.59%
16,O=C(NCC1(N2CCOCC2)CCCCC1)c1cc(=O)[nH]c2ccccc12,inactive: -1.02%
17,COc1ccc(CN(CCCl)CCCl)cc1Cl,inactive: -5.2%
18,CN(C)c1cccc(C(=O)NCC2(N3CCCCC3)CCCCC2)c1,inactive: 1.01%
19,CC(C)c1ccc(NC2CCN(C(=O)OC(C)(C)C)CC2)cc1,inactive: -3.47%
20,CN1CCC(Nc2cccc(F)c2)CC1,inactive: 3.12%
21,COc1ccc(C(=O)NCC2(N3CCCCC3)CCCCC2)c(OC)c1OC,inactive: -5.66%
22,O=C(NCC1(N2CCOCC2)CCCCC1)c1cc2ccccc2o1,inactive: 5.02%
23,CCOC(=O)N1CCC(Nc2ccc(OC)cc2)CC1,inactive: 2.21%
24,O=C(OC1CN2CCC1CC2)C1c2ccccc2Oc2ccccc21 (stereo not given),inactive: 10.2%
25,COc1ccc(NC2CCN(CCc3ccccc3)CC2)c(OC)c1,inactive: 4.59%
